Binding of CDR-mutated scFvs to a peptide of the spike HR2 region

The target is the same throughout: PDVDLGDISGINAS, from the HR2 region of SARS-CoV-2 spike.

Ab-95 is the parent antibody, in scFv form: VH, then three GGGGS repeats, then VL. The heavy chain is unchanged in all variants.
VH: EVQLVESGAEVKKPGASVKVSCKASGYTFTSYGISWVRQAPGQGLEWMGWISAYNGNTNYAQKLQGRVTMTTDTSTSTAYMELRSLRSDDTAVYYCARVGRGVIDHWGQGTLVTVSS
VL: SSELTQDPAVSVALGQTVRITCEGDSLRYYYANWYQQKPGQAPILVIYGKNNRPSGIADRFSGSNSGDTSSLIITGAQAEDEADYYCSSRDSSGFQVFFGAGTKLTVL

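Variants in AAYL52 differ from the parent at up to three CDR positions; double and triple changes were sampled at random. Affinity was read by AlphaSeq, a pooled yeast mating assay with surface-displayed partners. Mating (16 h, 30 °C) was followed by selection of diploids and sequencing of their barcodes. Each replicate has its own calibration line, from reference interactions of the BCL2 family. There are three technical replicates.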

Positions count from residue 1 of the parent VL; R28T puts T in place of R.
Affinities are written as log10 Kd with Kd in nM; a lower number is a better binder.
A mean of the replicates is given; it leaves out those without a signal.
Where no diploid with the target was found in any replicate, the entry reads "no signal": below detection, most likely a poor binder, though not proof of it.
Empty control strains, which show no peptide, gave a signal in 28% of pairings with library AAYL52; the median was 3.91 and 95% of these signals were weaker than 2.90. No background was subtracted. For each scFv, signals with the empty controls are counted beside the result.

| changes | log10 Kd (nM), mean | detected | signal with controls |
|---|---|---|---|
| R28T+Y29W+S93A | 3.84 | 2/3 | 4/9 |
| G24R+F98R | 3.10 | 3/3 | 3/9 |
| K50E+P54M+V97W | 2.25 | 3/3 | 3/9 |
| L27G+Y31A+S89T | 2.63 | 3/3 | 1/9 |
| S26L+K50C+D91G | no signal | 0/3 | 0/9 |
| Y29S+K50Y+D91W | 3.86 | 1/3 | 1/9 |
| G24L+Y30T+Q96I | 3.33 | 3/3 | 6/9 |
| Y29E+P54A+Q96L | 2.99 | 3/3 | 8/9 |
| D25S+F95D | 2.88 | 3/3 | 6/9 |
| K50M+N52C+S88I | 3.37 | 1/3 | 3/9 |
| G24H+S26I+Y31D | 2.96 | 2/3 | 2/9 |
| L27Q+R28C+S88E | 4.55 | 2/3 | 1/9 |
| Y31Q+N33K+S88D | 4.82 | 2/3 | 5/9 |
| R28A+A32G+N33H | 3.71 | 3/3 | 4/9 |
| G24M+A32V+S55V | 2.74 | 3/3 | 1/9 |
| S26K+N33Q+F98Y | 3.14 | 1/3 | 1/9 |
| R28G+Y31H+P54R | 3.07 | 3/3 | 2/9 |
| Y30V+S88M | 1.59 | 3/3 | 3/9 |
| L27D+S93P+G94Y | 3.53 | 3/3 | 1/9 |
| Y30M+S88K | 1.73 | 3/3 | 3/9 |
| Y30G+S88Y+D91Y | 1.42 | 3/3 | 3/9 |
| R28Q+N52E+Q96V | 2.76 | 3/3 | 2/9 |
| E23Y+Y30N+R53H | -0.02 | 3/3 | 4/9 |
| L27D+N51W+R90N | no signal | 0/3 | 3/9 |
| E23V+N33A+F95V | 4.81 | 3/3 | 3/9 |
| K50N+P54E+F98P | 3.45 | 2/3 | 2/9 |
| N33C+R53A+R90F | 3.57 | 1/3 | 3/9 |

Second part, the sequence after the result:

| log10 Kd (nM), mean | detected | signal with controls | changes |
|---|---|---|---|
| 4.15 | 1/3 | 2/9 | P54W+D91F+V97M |
| 1.43 | 3/3 | 1/9 | E23W+Y31D+P54M |
| 2.96 | 3/3 | 1/9 | S55N+Q96I+F98L |
| 3.89 | 2/3 | 5/9 | L27H+Y29W+S89A |
| 4.43 | 3/3 | 4/9 | Y31A+A32W+N51S |
| 3.78 | 2/3 | 0/9 | S26V+S92D+Q96T |
| 1.87 | 3/3 | 3/9 | S88R+S92N+G94C |
| 4.23 | 2/3 | 3/9 | Y31C+N33M+F95V |
| 3.63 | 3/3 | 2/9 | Y31P+G49Y |
| 2.60 | 3/3 | 1/9 | R28F+D91S |
| 3.26 | 2/3 | 1/9 | Y31Q+G49Y+P54L |
| no signal | 0/3 | 2/9 | G49P+K50M+S89D |
| 3.67 | 1/3 | 4/9 | L27H+S55V+R90Q |
| 2.99 | 3/3 | 1/9 | Y30S+A32K+V97I |
| 4.36 | 1/3 | 1/9 | G24F+L27T+D91C |
| 4.47 | 2/3 | 4/9 | N33V+G49D+R90N |
| 5.62 | 1/3 | 3/9 | N33W+R90T+S92D |
| 4.87 | 2/3 | 2/9 | S26T+S88D+F98E |
| no signal | 0/3 | 0/9 | S26I+A32Q+S93L |
| 4.70 | 2/3 | 5/9 | N51M+R53G+S55F |
| 4.66 | 1/3 | 1/9 | D25Q+S26V+S93W |
| 2.80 | 3/3 | 3/9 | G24Q+R28A+A32V |
| 4.51 | 1/3 | 2/9 | G24E+S88L+F98R |
| 4.51 | 2/3 | 1/9 | L27C+S93P+G94W |
| 3.38 | 2/3 | 3/9 | Y30C+A32K+S93D |
| 3.32 | 2/3 | 2/9 | L27A+Y30K+F98C |
| 4.09 | 2/3 | 6/9 | Y29C+P54A+S55T |

The first 3 entries again:

changes	log10 Kd (nM), mean	detected	signal with controls
R28T+Y29W+S93A	3.84	2/3	4/9
G24R+F98R	3.10	3/3	3/9
K50E+P54M+V97W	2.25	3/3	3/9

Data: MIT Lincoln Laboratory AlphaSeq set, Engelhart et al. 2022, doi:10.1038/s41597-022-01779-4, as distributed in FLAb.